Assay results taken from patent publication US7241763B2, “3-furanyl analogs of toxoflavine as kinase inhibitors” (priority 2002, dated 2007).

The chains behind the UniProt entries cited, without tags or fusion partners.
UniProt P30305, whole entry: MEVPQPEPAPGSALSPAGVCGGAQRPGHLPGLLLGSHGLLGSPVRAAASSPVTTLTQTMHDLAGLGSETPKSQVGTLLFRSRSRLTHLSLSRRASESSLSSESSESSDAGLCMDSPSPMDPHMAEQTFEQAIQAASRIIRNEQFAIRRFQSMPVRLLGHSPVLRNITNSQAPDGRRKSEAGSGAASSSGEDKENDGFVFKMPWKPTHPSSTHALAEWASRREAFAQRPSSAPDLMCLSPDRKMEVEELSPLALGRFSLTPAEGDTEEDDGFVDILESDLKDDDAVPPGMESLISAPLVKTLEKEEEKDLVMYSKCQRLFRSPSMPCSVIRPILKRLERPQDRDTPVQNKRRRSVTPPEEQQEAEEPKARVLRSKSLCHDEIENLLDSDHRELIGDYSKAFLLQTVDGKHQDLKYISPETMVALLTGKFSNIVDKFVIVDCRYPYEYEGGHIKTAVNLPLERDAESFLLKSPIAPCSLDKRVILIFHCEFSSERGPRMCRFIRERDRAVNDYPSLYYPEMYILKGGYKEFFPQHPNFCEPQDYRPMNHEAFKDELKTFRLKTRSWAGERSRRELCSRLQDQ
UniProt Q9Y243, whole entry: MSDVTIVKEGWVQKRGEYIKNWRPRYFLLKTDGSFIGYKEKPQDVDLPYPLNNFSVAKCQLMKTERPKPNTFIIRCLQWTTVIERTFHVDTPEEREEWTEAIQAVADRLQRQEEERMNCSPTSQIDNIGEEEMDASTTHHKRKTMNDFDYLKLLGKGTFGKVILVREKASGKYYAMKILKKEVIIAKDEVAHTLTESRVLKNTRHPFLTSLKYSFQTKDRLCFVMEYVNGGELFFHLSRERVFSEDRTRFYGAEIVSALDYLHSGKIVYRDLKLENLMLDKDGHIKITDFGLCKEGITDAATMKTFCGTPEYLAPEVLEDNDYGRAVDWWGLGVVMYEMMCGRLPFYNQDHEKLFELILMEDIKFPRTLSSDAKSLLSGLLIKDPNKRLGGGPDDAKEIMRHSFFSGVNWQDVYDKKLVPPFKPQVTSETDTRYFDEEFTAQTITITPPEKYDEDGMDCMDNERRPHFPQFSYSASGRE
UniProt P11802, whole entry: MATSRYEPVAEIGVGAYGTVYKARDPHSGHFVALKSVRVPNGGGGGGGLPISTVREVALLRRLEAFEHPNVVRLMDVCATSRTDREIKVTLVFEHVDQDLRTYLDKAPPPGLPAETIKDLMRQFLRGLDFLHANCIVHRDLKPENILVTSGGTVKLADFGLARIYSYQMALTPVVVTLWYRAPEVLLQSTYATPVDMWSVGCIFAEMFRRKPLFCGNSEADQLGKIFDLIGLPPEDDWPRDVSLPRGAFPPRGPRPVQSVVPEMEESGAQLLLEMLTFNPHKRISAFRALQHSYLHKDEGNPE
UniProt P24385, whole entry partner: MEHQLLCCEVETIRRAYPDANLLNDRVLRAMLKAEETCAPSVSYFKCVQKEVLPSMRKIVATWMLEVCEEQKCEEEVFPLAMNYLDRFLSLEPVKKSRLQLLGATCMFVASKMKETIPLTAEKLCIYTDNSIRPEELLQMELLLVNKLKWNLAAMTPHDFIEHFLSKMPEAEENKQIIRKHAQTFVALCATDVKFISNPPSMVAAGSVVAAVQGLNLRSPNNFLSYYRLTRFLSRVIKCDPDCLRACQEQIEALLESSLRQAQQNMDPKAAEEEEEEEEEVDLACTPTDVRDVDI

What was measured:
[1] = system: A2780 cell; assay: Cytotox/survival of A2780 cell after 3 days; conditions: A2780 ovarian carcinoma cell line
Experimental: In an alternative assay, the growth inhibitory effect of the compounds was tested on the ovarian carcinoma cell line A2780 using art known cytotoxicity assays such as LIVE/DEAD (Molecular Probes) or MTT.

[2] = biological target: CDC25B (Homo sapiens, UniProt P30305); assay: In vitro inhibition of CDC25B using the fluorogenic substrate 3-OMFP (CDC25B WT, Ex. C5); conditions: 3-OMFP substrate, 1 hour room temperature
Experimental: In Vitro Inhibition of CDC25B using the Fluorogenic Substrate 3-OMFP
CDC25B phosphatase activity is assessed using the fluorogenic substrate 3-O-methyl-flurorescein-phosphate (3-OMFP). The phosphatase-reaction is performed for 1 hour at room temperature in a black microtiter plate in a volume of 50 μl. The reaction mixture contains 4 μg/mlCDC25B, 15 μM (3-OMFP), 15 mM Tris, 50 mM NaCl, 1 mM DTT, 1 mM Na2EDTA at pH 8.0 and 0.1% DMSO solution at 10^−5 M and the hits are tested in the same conditions in a full dose/response from 10^−5, 3.10^−6, 10^−6 and 3.10^−7 M. The enzymatic activity is determined by measuring the fluorescent signal at 485 nm (ex.) and 538 (em.).

[3] = biological target: T1, AKT3 (Homo sapiens, UniProt Q9Y243); assay: In vitro inhibition of AKT3 using a filter assay (AKT3 pep., Ex. C3); conditions: histone H2B substrate, 25° C. 3 hrs
Experimental: In Vitro Inhibition of AKT3 using a Filter Assay
In the present AKT3 filter assay, a kinase substrate consisting of a fragment of histone H2B, is incubated with the aforementioned protein in the presence of (^33P) radiolabeled ATP. The (^33P)phosporylated substrate binds to a phosphocellulose cation exchange filter, that can easily be removed from the incubation mixture and counted using a microplate scintillation counter.
AKT3 filter assays were performed at 25° C. for 3 hrs in the presence of 25 mM Hepes, pH 7.0, containing 15 mM MgCl2, 1 mM DTT Each assay was performed in a 100 μl reaction volume containing 111 nM AKT3 (diluted in 25 mM Hepes, pH 7.0, containing 15 mM MgCl2, 1 mM DTT) and the 2.5 μM Histone H2B and 2 nM ATP-P^32. The reaction was terminated by addition of 100 μl 75 mM H3PO4, 90 μl of the assay mixture was filtered through Phosphocellulose cation exchange paper. After five times washing with […] H3PO4, the filterpaper was counting in a microtiterplate scintillation counter.

[4] = biological target: cdk4 (Homo sapiens, UniProt P11802); assay: In vitro inhibition of cdk4 using a scintillant proximity assay (CDK4 SPA, Ex. C1); conditions: GST-pRb substrate, 33P-ATP, room temperature 30 minutes
Experimental: In Vitro Inhibition of cdk4 using a Scintillant Proximity Assay
The scintillant proximity assay (SPA) is in general described in U.S. Pat. No. 4,568,649 (Amersham Pharmacia Biotech). In the present cdk4 SPA kinase reaction assay, a kinase substrate consisting of a fragment of the restinoblastoma protein (pRb) tagged with […] (GST), is incubated with the aforementioned protein in the presence of (^33P) radiolabeled ATP. (^33P) phosporylation of the substrate is subsequently measured as light energy emitted using glutathione-coated SPA beads (Amersham Pharmacia Biotech) by trapping and quantifying the binding of the GST tagged and radiolabeled restinoblastoma protein.
The CDK4 SPA kinase reaction is performed at room temperature for 30 minutes in a 96-well microtiter plate. For each of the tested compounds a full dose response —10^−5M to 3.10^−9M—has been performed. Flavopiridol was used as reference compound. The 100 μl reaction volume contains 50 mM Hepes, 10 mM NaF, 10 mM MgCl2, 1 mM Na3VO4 pH 7.5, 1.5 μg CDK4-cell lysate/well, 0.2 μM unlabeled ATP, 1.7 μg/well GST-pRb, 1.7 nM AT^33P and 1 μl of a DMSO solution. […] The microtiterplates are centrifuges at 900 rpm for 10 minutes and the amount of phosphorylated (^33P) pRb is determined by counting (1 min/well) in a microtiterplate scintillation counter.

[5] = biological target: T1, AKT3; assay: Cellular inhibition of AKT3 using an ELISA (AKT cel, Ex. C6); conditions: MDA-MB 231 cells, phosphorylated MAPK ELISA, 30 minutes with compound
Experimental: Cellular Inhibition of AKT3 using an ELISA
The human breast adenocarcinoma cell line (MDA-MB 231) was used in an phosphospecific antibody cell ELISA (PACE) to assess the inhibitory effect of the compounds on AKT3 mediated phosphorylation of mitogen-activated protein kinase (MAPK). In the experiments the MDA-MB 231 cells were serum starved for 24 hours (5% CO2; 37° C.). Subsequently, the cells are incubated at room temperature for 2 hours with 20 μM (in serum free medium) of the phosphatidylinositol 3-kinase inhibitor Ly294002 (Alexis, San Diego, Calif.) prior to the incubation for 30 minutes with the compounds at a final concentration ranging from 1 nM to 3 μM. After fixation (with 4.5% formaldehyde) for 20 minutes and washing with PBS (0.1M) the cells were successively incubated with for 5 minutes with 0.1% Triton X-100 in PBS, for 20 minutes with 0.6% H2O2 and 1 hour with a 2% BSA solution as blocking buffer. […] The OD (490–655 nm) reflected the amount of phosphorylated MAPK and the pIC50 of the compounds was based on their effect with respect to blanco (0.1% DMSO) or an internal reference compound treatment.

## CC(C)n1nc(-c2ccc(-c3ccc(CNC4CCN(S(=O)(=O)N(C)C)CC4)cc3)o2)nc2c(=O)n(C)c(=O)nc1-2
[1]
  Cytotox/survival of A2780 cell after 3 days - pIC50 values: 7.058
[2]
  CDC25B WT (Ex. C5): pIC50 values: 7.731
[3]
  AKT3 pep. (Ex. C3): pIC50 values: 7.19
[4]
  CDK4 SPA (Ex. C1): pIC50 values: 7.225
[5]
  AKT cel (Ex. C6): pIC50 values: 6.627
